Reference: ChEMBL document CHEMBL4387751, “Development of substituted pyrido[3,2-d]pyrimidines as potent and selective dihydrofolate reductase inhibitors for pneumocystis pneumonia infection” (Bioorg Med Chem Lett, 2019)

Tested on: DHFR (human versus Pneumocystis jirovecii)
Experiment: Selectivity ratio of IC50 for inhibition of recombinant human DHFR using 18 uM DHFA as substrate to IC50 for inhibition of Pneumocystis jirovecii DHFR using 18 uM DHFA as substrate
Format: toxicity
Settings: recombinant human DHFR and Pneumocystis jirovecii DHFR, probe DHFA (substrate), read-out: Ratio IC50

For `COc1ccc(Nc2cnc3nc(N)nc(N)c3c2)cc1`, which selectivity ratio is on record?
The selectivity ratio was 9.
